# Nrf2 inh: inhibitors of Nrf2 signaling; Potency, µM (doses to about 46 µM), for inactives: at the top dose activity change, negative = inhibition, actives largely listed as inhibitors; A549 ARE-Fluc reporter, luciferase luminescence, 18-24 h; 2.1% of 360,000 active; further: potency means the concentration at half of the fitted maximal effect; on the % scale 0 is the no-effect control and ±100 the full control effect; nearly all actives have a fitted effect of over 60% in size
#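 In this cell-based qHTS, ARE-driven firefly luciferase in A549 cells reports Nrf2 activity; the luminescent signal after BugLite lysis is the measured value, with a prior CellTiter-Fluor read for cell health.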
# IL-2 act: IL-2 activation | IL-2 activation reporter assay, cell-based qHTS; stimulated with anti-CD3/CD4/CD28 beads; in transgenic mouse T cells | activation, % (series mostly up to about 46 µM) | 0.065% of 360,000 active | AID 652025; in the data active means activation above about 50%; inconclusive means mostly about 30% to 49%; further: 0% is about no effect
#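 Screening format: compound pinned onto unstimulated transgenic mouse T cells, 60 min incubation, then anti-CD3/anti-CD4/anti-CD28 bead stimulation for 18 hours at 37 degrees C, followed by EGFP and DsRed detection.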
# Nrf2 ARE act: Nrf2 pathway activation; AREc32 ARE-luciferase reporter (MCF7-derived line), luminescence, 24 h; AID 624171; 0.31% of 410,000 active; Potency, µM (top dose mostly 46.1 µM), without a hit: at the top dose activation, most hits filed as activators; further: potency means the concentration at half of the fitted maximal effect; % of control where 0% means no effect; nearly all actives have a fitted effect of over 65% in size
#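 Luminescent ARE reporter assay in AREc32_Fluc cells: overnight plating at 37 deg C, 24 hr compound incubation, Steady-Glo added, 30 min RT before reading.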
# ClpP mod: qHTS Assay for Activators of ClpP; ATP-dependent Clp protease proteolytic subunit (Bacillus subtilis (strain 168)), P80244; purified B. subtilis ClpP, FRET peptide cleavage, 20 min; Potency, µM (series often up to 57.5 µM), without a hit: at the top dose activity change, negative = active; 1.9% of 340,000 active; AID 651965, 2013; active means well fitted falling curve with a large enough effect; inconclusive means small, poorly fitted or top-dose-only effect; inactive means no such curve, though single readings can be large or run the other way; further: potency means the concentration at half of the fitted maximal effect; the source files actives as falling curves though it sought activators and does not explain the sign; nearly all actives have a fitted effect of over 65% in size
#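 Buffer: 100 mM Tris/HCl pH8, 100 mM KCl, 0.05% low protease BSA, 2.5% glycerol, 0.01% Tween-20. ClpP 10 microg/mL final; 20 min RT; delta FRET normalized to ADEP and DMSO controls.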
# A549 tox-1: counter-screen for Nrf2 inhibitors: cytotoxicity in A549 cells; A549 ARE-Fluc cells, CellTiter-Fluor viability, 18-24 h; AID 504648; Potency, µM (titrated, usually from 46 µM), inactives show top-dose activity change, negative = cytotoxicity, usual class: inhibitors; 0.16% of 390,000 active; further: potency means the concentration at half of the fitted maximal effect; on the % scale 0 is the no-effect control and ±100 the full control effect
#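 A549 ARE-Fluc cells in 5% FBS OPTI-MEM, 5000 cells/well, rested 2 h then exposed to compounds in concentration-response for 18-24 h at 37 °C. Viability by CellTiter-Fluor fluorescence (Ex 405/Em 525) after 30 min; luciferase luminescence (BugLite, 15 min, RT) read afterwards.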
# miR-21 FLuc: miR-21 reporter, rising signal; Potency, µM (titrated, usually from 38.3 µM), without a hit: at the highest dose reporter change, positive = more light; AID 2288; 340,000 tested, under 10 active; HeLa miR-21 FLuc reporter, luciferase, 48 h; active = well fitted rising curve with a large enough effect; inconclusive = small, poorly fitted or top-dose-only effect; inactive = no such curve, though single readings can be large or run the other way;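 note: % of control where 0% means no effect; miR-21 action dims this reporter so a rising signal means less miR-21 action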
#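 Compounds were titrated across several concentrations (up to approximately 40 uM) and incubated 48 hours with HeLa miR-21-FLuc reporter cells (miR-21 target sequence downstream of FLuc, endogenous miR-21). Readout was firefly luciferase luminescence after lytic detection reagent.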
# FLuc enzyme inh: firefly luciferase inhibition, Nrf2 hit validation | 4% of 1,400 active | shares compounds with Nrf2 inh | Potency, µM (series often up to 57.5 µM), inactives show top-dose activity change, negative = inhibition, most hits filed as inhibitors | purified firefly luciferase, luminescence inhibition; further: potency means the concentration at half of the fitted maximal effect; on the % scale 0 is the no-effect control and ±100 the full control effect; nearly all actives have a fitted effect of over 65% in size
# A549 tox-2: A549 cytotoxicity, Nrf2 inhibitor counterscreen; 2% of 1,400 active; Potency, µM (titrated, usually from 46.1 µM), for inactives: top-dose activity change, negative = cytotoxicity, actives largely listed as inhibitors; shares compounds with Nrf2 inh; A549 ARE-Fluc cells, cytotoxicity counterscreen;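 further: potency means the concentration at half of the fitted maximal effect; cells exposed to compounds for 18 to 24 hours; on the % scale 0 is the no-effect control and ±100 the full control effect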
# ARE-Fluc inh: Nrf2 inhibition confirmed, A549 ARE-luciferase; shares compounds with Nrf2 inh; A549 ARE-firefly luciferase reporter, luminescence; Potency, µM (series often up to 46.1 µM), without a hit: at the highest dose activity change, negative = inhibition, usual class: inhibitors; 74% of 1,400 active; AID 720524; further: potency means the concentration at half of the fitted maximal effect; on the % scale 0 is the no-effect control and ±100 the full control effect; nearly all actives have a fitted effect of over 65% in size
# * hit, by the source's call; ? = inconclusive; · = no result given; [ ] = another dose, or the depositor's remark. A selection: hits, their analogues and other compounds. The true share with any hit is near 3.7%. Unless noted, the call rests on the fitted dose curve; in most records, active means well fitted curve in the direction sought with a large enough effect; inconclusive means small, poorly fitted or top-dose-only effect, or another doubt; inactive means no such curve, though single readings can be large; an effect the other way counts as inactive or inconclusive.
SMILES,Nrf2 inh,IL-2 act,Nrf2 ARE act,ClpP mod,A549 tox-1,miR-21 FLuc,FLuc enzyme inh,A549 tox-2,ARE-Fluc inh
Cc1cc(C)nc(Nc2n[nH]c(C)n2)n1,5.8µM*,-1,0%,-2%,2%,0%,-2%,2%,-2%
CCCCN(CC)S(=O)(=O)c1ccc(C(=O)Nc2nnc(-c3cccs3)o2)cc1,2.3µM*,0,0%,2%,-18%,?,3%,?,7.3µM*
COc1ccc(OC)c(CCNC(=O)c2c3c(nc4ccccc24)C(=O)N(C2CCCCC2)C3)c1,?,·,6%,-6%,0%,?,·,·,·
COc1cccc(OCc2nc3ccccc3n2CCOc2ccc(C)cc2)c1,?,·,4%,-1%,-4%,-25%,·,·,·
CN(c1cccc(NC(=O)CN(c2ccc(C34CC5CC(CC(C5)C3)C4)cc2)S(C)(=O)=O)c1)S(C)(=O)=O,7.3µM*,1,2%,-2%,?,30%,-6%,?,21µM*
CN(c1cccc(NC(=O)CN(c2ccc(F)cc2)S(C)(=O)=O)c1)S(C)(=O)=O,-22%,0,0%,-1%,6%,0%,·,·,·
Cc1oc2ncn(CC(C)C)c(=O)c2c1C(=O)NCc1cccc(Cl)c1,30%,·,-1%,-1%,15%,4%,·,·,·
COc1ccc(-c2c(C)sc(NC(=O)c3ccnn3C)c2C#N)cc1,6.5µM*,-2,5%,5%,-9%,-31%,-14%,?,·
O=S(=O)(N/N=C1/CC(c2ccccc2)Oc2ccccc21)c1ccc(Br)cc1 (stereo unspecified),8.2µM*,-2,8%,-2%,?,-9%,?,-7%,·
CCc1ccc(S(=O)(=O)N(C(=O)c2ccncc2)c2ccc3oc(C)c(C(=O)OC)c3c2)cc1,6.5µM*,·,0%,-1%,-13%,28%,-8%,-13%,10µM*
COc1ccc(S(=O)(=O)N(C(=O)c2ccncc2)c2ccc3oc(C)c(C(C)=O)c3c2)cc1,5.8µM*,·,0%,-4%,0%,?,-2%,0%,?
CCOC(=O)c1c(C)oc2ccc(N(C(=O)c3ccncc3)S(=O)(=O)c3ccc(F)cc3)cc12,?,·,0%,0%,-13%,-8%,·,·,·
COC(=O)c1c(C)oc2ccc(N(C(=O)c3ccncc3)S(=O)(=O)c3ccc(OC)cc3)cc12,0.82µM*,·,-1%,-3%,?,24%,-3%,-7%,15µM*
COc1ccc(S(=O)(=O)N(C(=O)c2ccncc2)c2ccc3oc4c(c3c2)CCCC4)cc1,?,0,1%,-2%,?,22%,·,·,·
CC(=O)c1c(C)oc2ccc(N(C(=O)c3ccncc3)S(=O)(=O)c3ccc(C)cc3C)cc12,?,·,1%,1%,4%,?,·,·,·
CCOc1ccc(S(=O)(=O)N(C(=O)c2ccncc2)c2ccc3oc(C)c(C(=O)OC)c3c2)cc1,0.65µM*,·,-1%,2%,?,?,1%,-15%,-18%
CC(=O)Nc1nonc1-c1nnc(SCC(=O)Nc2ccccc2)n1-c1ccccc1,5%,·,0%,-1%,-3%,-3%,·,·,·
COc1ncccc1C(=O)N1CCCC(N2CCN(c3ccc(F)cc3)CC2)C1 (stereo unspecified),-22%,-3,0%,-4%,0%,·,·,·,·
COc1ncccc1C(=O)N1CCCC(N2CCN(c3cccc(Cl)c3)CC2)C1 (stereo unspecified),8.2µM*,-5,2%,-3%,4%,9%,-1%,1%,?
CCn1c(COc2cccc(C)c2C)nnc1SCC(=O)N1CCN(c2ccc(OC)cc2)CC1,9.2µM*,-2,0%,4%,-6%,2%,-1%,-15%,8.2µM*
CCCCC(=O)Nc1nnc(S(=O)(=O)N(C)Cc2ccccc2)s1,-5%,·,-1%,-2%,0%,0%,·,·,·
Cc1cc(O)c2c(c1O)C(=O)[C@]13C(=C2O)C(=O)[C@@H]2[C@@H](O)[C@H]1[C@@H]1[C@H](O)[C@H]3C(=O)C3=C(O)c4c(O)cc(C)c(O)c4C(=O)[C@]312,0.37µM*,0,5%,-2%,?,·,?,?,1.2µM*
CCc1ccc(C(c2ccccc2)c2c[nH]c3ccc(C)cc23)s1 (stereo unspecified),3%,·,18%,-9%,0%,-2%,·,·,·
O=C1C=CCC(/C=C/c2ccccc2)O1 (stereo unspecified),2.6µM*,-1,6%,0%,-16%,24%,-9%,?,1.3µM*
CCC1([N+](=O)[O-])COC(C=Cc2ccccc2)OC1 (stereo unspecified),?,0,4%,·,2%,·,·,·,·
CC(=O)Nc1nonc1-c1nnc(SCC(=O)Nc2cc(Cl)ccc2C)n1C,17%,·,-2%,2%,3%,12%,·,·,·
Cc1nc2ccccc2n1Cc1ccc(Br)cc1,?,-3,2%,·,1%,·,-21%,3%,?
Cc1nc2ccccc2n1Cc1ccccc1Br,4%,-3,0%[9.22 µM],·,1%,17%,·,·,·
CO/N=C/c1ccc(N2CCN(C(=O)c3cccc(C(F)(F)F)c3)CC2)c([N+](=O)[O-])c1,?,-3,1%,0%,?,16%,·,·,·
CO/N=C/c1ccc(N2CCN(C(=O)c3ccc(Cl)cc3Cl)CC2)c([N+](=O)[O-])c1,6.5µM*,-3,0%,0%,-28%,27%,-1%,-22%,12µM*
Cc1nc(N2CCCCC2)sc1C(=O)c1cccc([N+](=O)[O-])c1,2.9µM*,-2,3%,·,-14%,-50%,-28%,0%,-20%
N=C(c1cccc([N+](=O)[O-])c1)N1CCCCCC1,6%,1,0%,1%,1%,-1%,·,·,·

# Nothing new here: an excerpt of the list.
SMILES,Nrf2 inh,IL-2 act,Nrf2 ARE act,ClpP mod,A549 tox-1,miR-21 FLuc,FLuc enzyme inh,A549 tox-2,ARE-Fluc inh
CCCCC(=O)Nc1nnc(S(=O)(=O)N(C)Cc2ccccc2)s1,-5%,·,-1%,-2%,0%,0%,·,·,·
Cc1cc(O)c2c(c1O)C(=O)[C@]13C(=C2O)C(=O)[C@@H]2[C@@H](O)[C@H]1[C@@H]1[C@H](O)[C@H]3C(=O)C3=C(O)c4c(O)cc(C)c(O)c4C(=O)[C@]312,0.37µM*,0,5%,-2%,?,·,?,?,1.2µM*
CCc1ccc(C(c2ccccc2)c2c[nH]c3ccc(C)cc23)s1 (stereo unspecified),3%,·,18%,-9%,0%,-2%,·,·,·
O=C1C=CCC(/C=C/c2ccccc2)O1 (stereo unspecified),2.6µM*,-1,6%,0%,-16%,24%,-9%,?,1.3µM*

# Compound activity as filed in PubChem.
